# Source: patent publication US5418150A, “Method of cleaving DNA” (priority 1993, dated 1995)
# Chains of the proteins cited; added tags and fusions are not shown. Lines headed by an entry give the natural chain unless they say otherwise; changes in a name come on top.
# UniProt P50187: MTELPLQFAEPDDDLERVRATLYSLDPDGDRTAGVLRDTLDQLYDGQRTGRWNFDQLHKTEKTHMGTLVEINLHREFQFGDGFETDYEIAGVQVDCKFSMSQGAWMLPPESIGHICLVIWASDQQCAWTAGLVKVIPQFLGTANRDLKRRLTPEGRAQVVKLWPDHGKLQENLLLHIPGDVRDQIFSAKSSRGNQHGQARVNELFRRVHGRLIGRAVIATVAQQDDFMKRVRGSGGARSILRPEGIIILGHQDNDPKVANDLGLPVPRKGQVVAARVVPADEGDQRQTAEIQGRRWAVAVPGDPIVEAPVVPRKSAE
# What was measured:
# Nae I [1] = biological target: T1, Nae I (Lentzea aerocolonigenes, UniProt P50187); experiment: Activation of Nae I cleavage of M13mp18 RFI DNA; format: biochemical, Nocardia aerocolonigenes; parameters: Activation of Nae I cleavage of M13mp18 RF1 DNA: key to the marks not given beside the values
# Nae I [2] = biological target: T1, Nae I; experiment: Nae I cleavage of recognition sites in various DNAs (quantitative gel assay); format: biochemical, Nocardia aerocolonigenes
sequence,measurement,setting,value
CTAGCTGGTGGTGGGCGCCGGCGGTGTGGGCAGCTGGTGAGCT,Activation of Nae I cleavage of M13mp18 RF1 DNA,Nae I [1]; compared to cleavage caused by an equal concentration of pBR322 Nae I sites,++++
same,Activating Nae I cleavage of M13mp18 doublestranded supercoiled DNA,"Nae I [1]; double-stranded conformation as listed (sc, nk, lin, ds)",Yes
same,KA,"Nae I [1]; from replot of FIG. 2a, varying activator at constant M13mp18 concentration",about 6 nM
same,KA,Nae I [1]; from slope of plot of Y-intercept of FIG. 2b against Y-intercept/[activator],about 10 nM
same,Effect on Nae I cleavage of M13mp18,Nae I [1]; in the presence of 1 mM spermidine,completely inhibited
same,Activating Nae I cleavage of M13mp18 doublestranded supercoiled DNA,"Nae I [1]; single-stranded (ss), 0 sites",No
same,KA for the oligonucleotide duplex (activating site),Nae I [1]; summary of both determinations,6 to 10 nM
same,Cleaved by Nae I,"Nae I [2]; absence of additional DNA or spermidine, 2 units Nae I, 0.15 μg DNA, 1 hr 37° C., double-stranded conformation as listed (sc, nk, lin, ds)",Yes
same,Km,"Nae I [2]; read-out: KM for cleavage of the oligonucleotide activator duplex, substrate binding site, first order kinetics",0.246 µM
same,Cleaved by Nae I,"Nae I [2]; single-stranded (ss), 0 sites",No
